In PubChem BioAssay AID602340 (Broad Institute, 2012) one finds rescue of ATP level data, which are given here for 60 molecules.

The list shows a part of the results, in another mix than the full data. Some structures show a salt or complex split into parts, the way the source records it. The source made the active and inactive calls.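 Rule for the calls: active = mean ATP rescue above about 67%, or every replicate alone reaching that limit (limit read from the data, passing the limit was not always enough); inconclusive = no clear call, values can overlap the other calls; inactive = mean under the limit and some replicate under it.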

The nature of this experiment: suppressors of statin myotoxicity in C2C12 myotubes, primary screen, cell-based, single point, plate reader (AID 602340).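 Note: myotubes were challenged with 10 µM simvastatin during compound exposure.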 The note with it: C2C12 myotubes + simvastatin, ATP luminescence, 48 h; at 7.49 µM; hits give high values; scaled: DMSO 0, geranylgeraniol control 100.
For `COc1ccc(OP(C)(=O)Nc2ccc(Br)cc2)cc1` (stereo not given), the rescue of ATP level was inactive: -1.14%.
As to `CP(=O)(Oc1ccccc1)N1CCOC1=O` (stereo not given), the rescue of ATP level was inactive: 1.69%.
Regarding `CCc1ccc(OP(C)(=O)Nc2cccnc2)cc1` (stereo not given), the rescue of ATP level was inactive: 16.5%.
In the case of `COc1ccccc1OP(C)(=O)Nc1c(C)n(C)n(-c2ccccc2)c1=O` (stereo not given) it was inactive: 9.87%; in that of `O=C(OCCCN1CCCC1)C(O)(c1ccccc1)C1CCCCC1` (stereo not given), inactive: -0.397%; in that of `CP(=O)(Nc1ccc(Cl)cc1)Oc1ccc(F)cc1` (stereo not given), inactive: 17%.
On to `CC(C)(C)c1ccc(OP(C)(=O)O)cc1`, for which the rescue of ATP level is inactive: -25.1%.
For the molecule `COc1ccccc1OP(C)(=O)Nc1ccccc1Br` (stereo not given), the rescue of ATP level is inactive: -8.96%.
As to `CP(=O)(OC12CC3CC(CC(C3)C1)C2)OC12CC3CC(CC(C3)C1)C2`, the rescue of ATP level is inactive: -12.4%.
The result for `O=C1C(O)=C([N+](=O)[O-])C(=O)C(O)=C1[N+](=O)[O-]` reads inactive: -4.27%; that for `COc1ccccc1OP(C)(=O)Nc1ccc(C)c(C)c1` (stereo not given), inactive: -3.35%.
As to `CP(=O)(Nc1ccc(Cl)cc1Cl)Oc1ccccc1` (stereo not given), the rescue of ATP level is inactive: -2.5%.
For the molecule `COc1ccccc1OP(C)(=O)Nc1ccc(Br)cc1` (stereo not given), the rescue of ATP level is inactive: 7.9%.
In the case of `CN(C)CCOC(=O)C(O)(c1ccccc1)C1CCCC1` (stereo not given) it was inactive: 7.2%; in that of `COc1ccc(OP(C)(=O)Nc2ccccn2)cc1` (stereo not given), inactive: -4.2%; in that of `O=[N+]([O-])c1cc([N+](=O)[O-])c(Nc2ccccn2)c([N+](=O)[O-])c1`, inactive: -0.237%.
Turning to `CCc1ccc(OP(C)(=O)O)cc1`, the rescue of ATP level is inactive: 1.21%.
As for `CP(=O)(Nc1ccccn1)Oc1ccccc1` (stereo not given), the rescue of ATP level is inactive: 0.835%.
In the case of `COc1ccccc1OP(C)(=O)Nc1ccc(C)cc1C` (stereo not given), the rescue of ATP level was inactive: 1.75%.
For `O=[N+]([O-])c1cc([N+](=O)[O-])c(Nc2ccc(Cl)cc2)c([N+](=O)[O-])c1`, the rescue of ATP level was inactive: -10.2%.
As for `CP(=O)(Nc1ccccc1F)Oc1ccccc1` (stereo not given), the rescue of ATP level was inactive: 18.6%.
The result for `COc1ccc2c(c1O)-c1c(O)c(OC)cc3c1[C@H](C2)[N+](C)(C)CC3.O=[N+]([O-])c1cc([N+](=O)[O-])c([O-])c([N+](=O)[O-])c1[O-]` reads inactive: -0.611%; that for `Cc1c([N+](=O)[O-])cc([N+](=O)[O-])c(Br)c1[N+](=O)[O-]`, inactive: -1.62%.
`O=[N+]([O-])c1cc([N+](=O)[O-])c(OC2CCCCC2O)c([N+](=O)[O-])c1` (stereo not given): the rescue of ATP level was inactive: -0.837%.
As to `CP(=O)(Nc1ccccc1)Oc1ccc(F)cc1` (stereo not given), the rescue of ATP level is inactive: 21.3%.
Take `COc1ccc(OP(C)(=O)Nc2cccc(Br)c2)cc1` (stereo not given): the rescue of ATP level is inactive: 4.49%.
With `COc1ccc(NP(C)(=O)Oc2ccccc2OC)cc1` (stereo not given), the rescue of ATP level is inactive: 2.39%.
The result for `Cc1cc(-c2cccc3ccccc23)c(C)cn1.O=[N+]([O-])c1cc([N+](=O)[O-])c(O)c([N+](=O)[O-])c1` reads inactive: -103%; that for `O=[N+]([O-])c1ccc(OP2(=O)COCCO2)cc1` (stereo not given), inactive: -2.21%.
On to `Cc1c(C(c2ccc3c(c2)OCO3)c2c(C)n(C)n(-c3ccccc3)c2=O)c(=O)n(-c2ccccc2)n1C.O=[N+]([O-])c1cc([N+](=O)[O-])c(O)c([N+](=O)[O-])c1`, for which the rescue of ATP level was inactive: -7.01%.
The result for `CP(=O)(Nc1ccc(SC(F)(F)F)cc1)Oc1ccc(F)cc1` (stereo not given) reads inactive: -10.7%.
The result for `CCOP(C)(=S)SCC(=O)NC(C)(CC)C(=O)O` (stereo not given) reads inactive: 11.4%; that for `CP(=O)(Nc1ccc2c(c1)OCCO2)Oc1ccccc1` (stereo not given), inactive: 25.1%.
For the molecule `Cc1ccccc1NP(C)(=O)Nc1ccccc1C`, the rescue of ATP level was inactive: 10.5%.
In the case of `O=[N+]([O-])c1cc([N+](=O)[O-])c(-n2nnc3ccccc32)c([N+](=O)[O-])c1`, the rescue of ATP level was inactive: 5.03%.
Regarding `CN(Cc1cccnc1)C(=O)COc1ccc(Cl)c(Cl)c1.O=[N+]([O-])c1cc([N+](=O)[O-])c(O)c([N+](=O)[O-])c1`, the rescue of ATP level was inactive: -3.35%.
Consider `Cc1nc2ccc3ccccc3c2s1.O=[N+]([O-])c1cc([N+](=O)[O-])c(O)c([N+](=O)[O-])c1`, for which the rescue of ATP level is inactive: 30.2%.
Consider `O=[N+]([O-])c1cc([N+](=O)[O-])c(Nc2nnnn2CCO)c([N+](=O)[O-])c1`, for which the rescue of ATP level is inactive: 3.15%.
For `CC1=C2N=C(C=C3N=C(C(C)=C4[N-][C@@](C)([C@@H]5N=C1[C@](C)(CCC(=O)NC[C@@H](C)OP(=O)([O-])O[C@H]1[C@@H](O)[C@@H](n6cnc7cc(C)c(C)cc76)O[C@@H]1CO)[C@H]5CC(N)=O)[C@@](C)(CC(N)=O)[C@@H]4CCC(N)=O)[C@@](C)(CC(N)=O)[C@@H]3CCC(N)=O)C(C)(C)[C@@H]2CCC(N)=O.[C-]#N.[Co+3]`, the rescue of ATP level was inactive: 1.77%.
As for `CN1CCCCC1COC(=O)C1(O)c2ccccc2CCc2ccccc21` (stereo not given), the rescue of ATP level is inactive: -7.05%.
Take `COc1ccccc1OP(C)(=O)Nc1c(C)cccc1C` (stereo not given): the rescue of ATP level is inactive: 2.48%.
`CCCOc1ccc(NP(C)(=O)Oc2ccc(Cl)cc2)cc1` (stereo not given): the rescue of ATP level is inactive: 1.64%.
Consider `O=C(O)c1cccc(Nc2c([N+](=O)[O-])cc([N+](=O)[O-])cc2[N+](=O)[O-])c1`, for which the rescue of ATP level is inactive: -10.3%.
As for `CC1=NCCc2c1[nH]c1ccccc21.O=[N+]([O-])c1cc([N+](=O)[O-])c(O)c([N+](=O)[O-])c1`, the rescue of ATP level is inactive: -7.14%.
On to `COc1ccccc1OP(C)(=O)Nc1cccc(Br)c1` (stereo not given), for which the rescue of ATP level is inactive: -2.79%.
In the case of `Cc1cc(C)cc(OP(C)(=O)Nc2ccc(C)cc2C)c1` (stereo not given) it was inactive: -2.06%; in that of `Cc1cc(C)cc(OP(C)(=O)Nc2ccccn2)c1` (stereo not given), inactive: 4.58%.
Turning to `Cc1ccc(C)c(NP(C)(=O)Oc2ccccc2)c1` (stereo not given), the rescue of ATP level is inactive: 7.99%.
With `O=[N+]([O-])c1cc([N+](=O)[O-])c(Nc2cccnc2)c([N+](=O)[O-])c1`, the rescue of ATP level is inactive: 18.9%.
In the case of `CCOC(=O)c1ccc(NP(C)(=O)Oc2ccccc2)cc1` (stereo not given), the rescue of ATP level is inactive: 14.2%.
The result for `Cc1ccc(NP(C)(=O)Oc2ccccc2)c(C)c1` (stereo not given) reads inactive: 12.8%; that for `COc1ccccc1OP(C)(=O)Nc1cc(Cl)ccc1C` (stereo not given), inactive: 2.8%; that for `COc1ccc(OP(C)(=O)Nc2cccc(F)c2)cc1` (stereo not given), inactive: 3.65%.
Consider `Cc1cc(C)cc(OP(C)(N)=O)c1` (stereo not given), for which the rescue of ATP level was inactive: -0.831%.
In the case of `CP(=S)(Nn1cnnc1)Oc1ccccc1` (stereo not given) it was inactive: -5.36%; in that of `Cc1ccc(Nc2c([N+](=O)[O-])cc([N+](=O)[O-])cc2[N+](=O)[O-])cc1`, inactive: 4.65%; in that of `CP(=O)(Oc1ccccc1)OC(c1ccccc1)C(F)(F)F` (stereo not given), inactive: 9.1%.
Consider `CP(=O)(NC(=O)Nc1ccccc1)Oc1ccccc1` (stereo not given), for which the rescue of ATP level was inactive: 5.65%.
For the molecule `CCOP(C)(=S)SCC(=O)NC(C)C(=O)O` (stereo not given), the rescue of ATP level was inactive: 4.35%.
For the molecule `CP(=O)(Nc1ccccn1)Oc1ccc(Cl)cc1` (stereo not given), the rescue of ATP level is inactive: 16.1%.
